The nature of data set [1]: immunofluorescence, confocal microscopy. The settings on record: glycan lost; control: DNMT1-WT, low glucose.
Data set [2] in a line: EpiQuik DNMT activity ELISA on immunoprecipitated Myc-DNMT1. The settings on record: glycan lost; control: Myc-DNMT1-WT under high glucose/TMG. For orientation: ELISA stands for enzyme-linked immunosorbent assay.

B1: DNMT1: S878A (protein)
parent chain: MPARTAPARVPTLAVPAISLPDDVRRRLKDLERDSLTEKECVKEKLNLLHEFLQTEIKNQLCDLETKLRKEELSEEGYLAKVKSLLNKDLSLENGAHAYNREVNGRLENGNQARSEARRVGMADANSPPKPLSKPRTPRRSKSDGEAKPEPSPSPRITRKSTRQTTITSHFAKGPAKRKPQEESERAKSDESIKEEDKDQDEKRRRVTSRERVARPLPAEEPERAKSGTRTEKEEERDEKEEKRLRSQTKEPTPKQKLKEEPDREARAGVQADEDEDGDEKDEKKHRSQPKDLAAKRRPEEKEPEKVNPQISDEKDEDEKEEKRRKTTPKEPTEKKMARAKTVMNSKTHPPKCIQCGQYLDDPDLKYGQHPPDAVDEPQMLTNEKLSIFDANESGFESYEALPQHKLTCFSVYCKHGHLCPIDTGLIEKNIELFFSGSAKPIYDDDPSLEGGVNGKNLGPINEWWITGFDGGEKALIGFSTSFAEYILMDPSPEYAPIFGLMQEKIYISKIVVEFLQSNSDSTYEDLINKIETTVPPSGLNLNRFTEDSLLRHAQFVVEQVESYDEAGDSDEQPIFLTPCMRDLIKLAGVTLGQRRAQARRQTIRHSTREKDRGPTKATTTKLVYQIFDTFFAEQIEKDDREDKENAFKRRRCGVCEVCQQPECGKCKACKDMVKFGGSGRSKQACQERRCPNMAMKEADDDEEVDDNIPEMPSPKKMHQGKKKKQNKNRISWVGEAVKTDGKKSYYKKVCIDAETLEVGDCVSVIPDDSSKPLYLARVTALWEDSSNGQMFHAHWFCAGTDTVLGATSDPLELFLVDECEDMQLSYIHSKVKVIYKAPSENWAMEGGMDPESLLEGDDGKTYFYQLWYDQDYARFESPPKTQPTEDNKFKFCVSCARLAEMRQKEIPRVLEQLEDLDSRVLYYSATKNGILYRVGDGVYLPPEAFTFNIKLSSPVKRPRKEPVDEDLYPEHYRKYSDYIKGSNLDAPEPYRIGRIKEIFCPKKSNGRPNETDIKIRVNKFYRPENTHKSTPASYHADINLLYWSDEEAVVDFKAVQGRCTVEYGEDLPECVQVYSMGGPNRFYFLEAYNAKSKSFEDPPNHARSPGNKGKGKGKGKGKPKSQACEPSEPEIEIKLPKLRTLDVFSGCGGLSEGFHQAGISDTLWAIEMWDPAAQAFRLNNPGSTVFTEDCNILLKLVMAGETTNSRGQRLPQKGDVEMLCGGPPCQGFSGMNRFNSRTYSKFKNSLVVSFLSYCDYYRPRFFLLENVRNFVSFKRSMVLKLTLRCLVRMGYQCTFGVLQAGQYGVAQTRRRAIILAAAPGEKLPLFPEPLHVFAPRACQLSVVVDDKKFVSNITRLSSGPFRTITVRDTMSDLPEVRNGASALEISYNGEPQSWFQRQLRGAQYQPILRDHICKDMSALVAARMRHIPLAPGSDWRDLPNIEVRLSDGTMARKLRYTHHDRKNGRSSSGALRGVCSCVEAGKACDPAARQFNTLIPWCLPHTGNRHNHWAGLYGRLEWDGFFSTTVTNPEPMGKQGRVLHPEQHRVVSVRECARSQGFPDTYRLFGNILDKHRQVGNAVPPPLAKAIGLEIKLCMLAKARESASAKIKEEEAAKD
With B1, the localisation_or_trafficking entry in data set [1] is reported as “no change”. For the same protein, in data set [2], the enzymatic_activity result was “increases”.

The values above are taken from article PMC10390045.
